One-dose inflammasome screen (PubChem AID 2061109, Seoul National University)
system: mouse macrophages from bone marrow, LPS + nigericin (NLRP3)
compound dose: 5 µM
value: % inhibition of cell death (propidium iodide), 0 = stimulated, 100 = untreated, floor at 0
*: called active, above 70% Part of the library is listed.

COc1ccc2c3c1O[C@H]1C[C@@H](O)CC[C@@]31CCN(C)C2
- inhibition: 35.6%

COc1ccc2c(c1)NC(=O)CN2c1nc(C)nc2c1CCC2
- inhibition: 0.0%

Clc1ccc(CO/N=C(\Cn2ccnc2)c2ccc(Cl)cc2Cl)c(Cl)c1.O=[N+]([O-])O
- inhibition: 0.0%

COC(=O)[C@@]1(C)CC[C@]2(C(=O)O)CC[C@]3(C)C(=CC[C@@H]4[C@@]5(C)C[C@H](O)[C@H](O[C@@H]6OC[C@@H](O[C@@H]7O[C@H](CO)[C@@H](O)[C@H](O)[C@H]7O)[C@H](O)[C@H]6O)[C@@](C)(CO)[C@@H]5CC[C@]43C)[C@@H]2C1
- inhibition: 24.0%

CN=C(NC#N)Nc1ccc(C2=NNC(=O)CC2C)cc1
- inhibition: 31.7%

CC(=O)N1CCC(c2nccnc2Oc2ccc(C(=O)c3nc4ccccc4[nH]3)cc2)CC1
- inhibition: 12.7%

Cl.NCCCOc1cc2ccccc2cc1C(=O)Nc1ccc(Cl)cc1O
- inhibition: 51.4%

O=C1N[C@](c2ccc(N3CCOCC3)cc2)(c2cccs2)CC(O)=C1Sc1ccccc1Cl
- inhibition: 71.7*%

Cc1cnc(Nc2ccc3c(c2)CCN(C(=O)/C=C/CN(C)C)C3)nc1-c1cnn(C(C)C)c1
- inhibition: 0.0%

C=CCN1CCc2nc(N)sc2CC1.Cl.Cl
- inhibition: 0.0%

CS(=O)(=O)O.CS(=O)(=O)O.Cc1ccc(C(=O)Nc2ccc(CN3CCN(C)CC3)c(C(F)(F)F)c2)cc1C#Cc1cnc2[nH]ncc2c1
- inhibition: 80.7*%

O=C(Nc1ccc(Cl)cc1)c1cc2ccccc2cc1OP(=O)(O)O
- inhibition: 0.0%

COC(=O)c1c(C)cc(O)c(C)c1O
- inhibition: 0.0%

CCc1nccn1CC(=O)c1ccc(O)c(O)c1.Cl
- inhibition: 0.0%

COc1ccccc1-c1cc2n(n1)Cc1ccc(NC(C)=O)cc1OC2
- inhibition: 0.0%

C[C@@H](C(=O)Nc1ccc(Cl)cc1)C1CCC(c2ccnc3ccc(F)cc23)CC1
- inhibition: 77.1*%

Cc1ccccc1C(C(=O)NC1CCCCC1)N(C(=O)Cn1cnc2ccccc21)c1cccc(F)c1
- inhibition: 0.0%

COc1cc(CCN(C)C)c2ccc3ccccc3c2c1OC
- inhibition: 49.5%

C1=CCC2(CC1)COC(c1ccco1)OC2
- inhibition: 0.0%

Cl.Nc1nc(NCC2CCC(CNS(=O)(=O)c3cccc4ccccc34)CC2)nc2ccccc12
- inhibition: 0.0%

O=C(NCc1cccc(O)c1)c1cc2cc(F)ccc2[nH]1
- inhibition: 1.8%

CCCCCCC/C=C/C(=O)CCc1ccc(O)c(OC)c1
- inhibition: 0.0%

CC1(C)C(=O)Nc2cc3nc(-c4ccncc4)[nH]c3cc21
- inhibition: 0.0%

O=C(NC(=O)c1c(F)cccc1F)Nc1cc(Cl)c(OC(F)(F)C(F)F)c(Cl)c1
- inhibition: 63.5%

CC(=O)OC(C)(C)CCC(=O)[C@](C)(O)[C@H]1[C@H](O)C[C@@]2(C)[C@@H]3CC=C4[C@@H](C[C@H](O)[C@@H](O)C4(C)C)[C@]3(C)C(=O)C[C@]12C
- inhibition: 62.8%

COc1cc2c(cc1OC)C(=O)C(CC1CCN(Cc3ccccc3)CC1)C2
- inhibition: 46.2%

C=CC(=O)N1CCC(C)(Nc2cccc(C(F)(F)F)c2)C1
- inhibition: 36.2%

Cc1ccnn1-c1ccc(C(=O)N2CCN(S(=O)(=O)c3ccc(Cl)c(C(F)(F)F)c3)CC2)cc1
- inhibition: 2.9%

CC[C@H]1OC(=O)[C@H](C)[C@@H](O[C@H]2C[C@@](C)(OC)[C@@H](O)[C@H](C)O2)[C@H](C)[C@@H](O[C@@H]2O[C@H](C)C[C@H](N(C)C)[C@H]2O)[C@](C)(O)C[C@@H](C)CN[C@H](C)[C@@H](O)[C@]1(C)O
- inhibition: 0.0%

C=CC(=O)N1CCN(c2nc(=O)n(-c3c(C)ccnc3C(C)C)c3nc(-c4c(O)cccc4F)c(F)cc23)[C@@H](C)C1
- inhibition: 3.7%, 0.0%

CCCc1cc(=O)c2ccccc2n1C
- inhibition: 48.9%

CC(=O)O.CC1CCN=C(N)C1
- inhibition: 0.0%

CC(C)Nc1nc(N)c(C(=O)c2ccccc2)s1
- inhibition: 66.1%

CN1C/C(=C/c2ccc(B(O)O)cc2)C(=O)/C(=C\c2ccc(B(O)O)cc2)C1
- inhibition: 0.2%

COc1cc2ncnc(Nc3ccc(F)c(Cl)c3)c2cc1NC(=O)/C=C/CN1CCCCC1.O
- inhibition: 39.8%

CC(C)(C)C(=O)NCCC1CCN(c2ncnc3cc(C(N)=O)sc23)CC1
- inhibition: 0.0%

C[C@@H](NC(=O)c1ccc(F)cc1)c1ccc2c(c1)CCN2C(=O)C1CCOCC1
- inhibition: 0.0%

CC1(C)C(=O)N(c2ccc(C#N)c(C(F)(F)F)c2)C(=S)N1c1ccc(C(=O)O)c(F)c1
- inhibition: 64.4%

N=c1c2c(-c3ccccc3)c(-c3ccccc3)n(Cc3ccccc3)c2ncn1C1CCC(O)CC1
- inhibition: 0.0%

COc1cc2c(c(O)c1OC)C(=O)c1c(cc(C)c(O)c1OC)C2=O
- inhibition: 26.8%

CC(C)C1CCC(C(=O)N[C@H](Cc2ccccc2)C(=O)O)CC1
- inhibition: 0.0%

CCC(=C/[C@H](C)C/C=C/C(C)=C/[C@@H](C)C(=O)[C@@H](C)[C@H](O)[C@@H](C)C/C(C)=C/C(=O)O)/C=C/[C@@H]1OC(=O)C=C[C@@H]1C
- inhibition: 0.0%

CN(CCCOc1ccc(Cc2ccccc2)cc1)CCC(=O)O.Cl
- inhibition: 0.0%

Cc1noc(-c2ccc(-c3ccc(C4(C(=O)O)CC4)cc3)cc2)c1NC(=O)O[C@H](C)c1ccccc1
- inhibition: 31.8%

CC[C@@H]1[C@H](F)C(=O)N[C@@H]1COc1nccc2cc(C(N)=O)c(OC)cc12
- inhibition: 60.8%

CCCc1ccc(O)c(-c2cc(CCC)ccc2O)c1
- inhibition: 67.5%

CCn1c(=O)c2c(nc(/C=C/c3ccc(OC)c(OC)c3)n2C)n(CC)c1=O
- inhibition: 38.6%

Nc1nc(OCc2ccc(CNC(=O)C(F)(F)F)cc2)c2[nH]cnc2n1
- inhibition: 11.8%

CC(=O)c1ccc2c(c1)N(CCCN(C)C)c1ccccc1S2.O=C(O)/C=C\C(=O)O
- inhibition: 67.9%

Cc1cc(O)c2c(c1)C(=O)c1cccc(O[C@@H]3O[C@H](CO)[C@@H](O)[C@H](O)[C@H]3O)c1C2=O
- inhibition: 43.7%

C=CC(=O)Nc1cccc(-c2cccc3cnc(Nc4ccc(N5CCN(CCO)CC5)c(F)c4F)nc23)c1
- inhibition: 59.1%

C=CCN1CCCC1CNC(=O)c1cc2n[nH]nc2cc1OC.Cl
- inhibition: 21.2%

O=C(ON=C1c2ccccc2-c2nc3ccccc3nc21)c1ccco1
- inhibition: 68.9%

Cn1cncc1[C@](N)(c1ccc(Cl)cc1)c1ccc2c(c1)c(-c1cccc(Cl)c1)cc(=O)n2C
- inhibition: 4.9%

CS(=O)(=O)NC(=O)C(c1ccc(OCc2ccc3ccccc3n2)cc1)C1CCCCCC1
- inhibition: 0.0%

COc1cc(NC(=O)Cc2cccc(-n3c(=O)c4c(C)noc4c4c(Cl)cccc43)c2)cc(OC)c1OC
- inhibition: 0.0%

CC(C)(O)c1cncc(-c2nc3ccc(F)cc3n2C2CC2)c1
- inhibition: 0.0%

CC[C@@]1(O)C(=O)OCc2c1cc1n(c2=O)Cc2c-1nc1ccccc1c2/C=N/OC(C)(C)C
- inhibition: 23.6%

COc1ccc(N2C(=O)/C(=C\c3ccc([N+](=O)[O-])s3)SC2=S)cc1
- inhibition: 0.0%

For reference, 6 entries again:

| compound | inhibition (%) |
|---|---|
| COc1ccc(N2C(=O)/C(=C\c3ccc([N+](=O)[O-])s3)SC2=S)cc1 | 0.0 |
| COc1cc(NC(=O)Cc2cccc(-n3c(=O)c4c(C)noc4c4c(Cl)cccc43)c2)cc(OC)c1OC | 0.0 |
| CCc1nccn1CC(=O)c1ccc(O)c(O)c1.Cl | 0.0 |
| Nc1nc(OCc2ccc(CNC(=O)C(F)(F)F)cc2)c2[nH]cnc2n1 | 11.8 |
| Cc1noc(-c2ccc(-c3ccc(C4(C(=O)O)CC4)cc3)cc2)c1NC(=O)O[C@H](C)c1ccccc1 | 31.8 |
| O=C1N[C@](c2ccc(N3CCOCC3)cc2)(c2cccs2)CC(O)=C1Sc1ccccc1Cl | 71.7* |